{"source": "patent US11446314B2", "about": "“Immunoablative therapies” (AVM Biotechnology LLC, priority 2018, dated 2022)", "tested_on": "peripheral blood cells", "settings": "for absolute RBCs / absolute neutrophils / absolute platelet: mouse, in vivo", "key": {"[1]": {"settings": "mice, oral 12 mg/kg on day −2, 48 hours"}, "[2]": {"settings": "mice, oral 17-18 mg/kg on day −2, 48 hours"}}, "note": "Read-outs that look alike come from different tables or passages of the source.", "data": [{"smiles": "C[C@@H]1C[C@H]2[C@@H]3CCC4=CC(=O)C=C[C@]4(C)[C@@]3(F)[C@@H](O)C[C@]2(C)[C@@]1(O)C(=O)CO", "note": "[dexamethasone]", "values": [{"measurement": "B lymphocytes", "setting": "[1]", "value": 111, "unit": "relative counts"}, {"measurement": "CD3+ lymphocytes", "setting": "[1]", "value": 92, "unit": "relative counts"}, {"measurement": "CD4+ lymphocytes", "setting": "[1]", "value": 37, "unit": "relative counts"}, {"measurement": "CD8+ lymphocytes", "setting": "[1]", "value": 33, "unit": "relative counts"}, {"measurement": "Tregs", "setting": "[1]", "value": 0.2, "unit": "relative counts"}, {"measurement": "absolute lymphocytes", "setting": "[1]", "value": 521, "unit": "relative counts"}, {"measurement": "B lymphocytes", "setting": "[2]", "value": 58, "unit": "relative counts"}, {"measurement": "CD3+ lymphocytes", "setting": "[2]", "value": 71, "unit": "relative counts"}, {"measurement": "CD4+ lymphocytes", "setting": "[2]", "value": 25, "unit": "relative counts"}, {"measurement": "CD8+ lymphocytes", "setting": "[2]", "value": 1.4, "unit": "relative counts"}, {"measurement": "Tregs", "setting": "[2]", "value": 0.5, "unit": "relative counts"}, {"measurement": "absolute lymphocytes", "setting": "[2]", "value": 88, "unit": "relative counts"}, {"measurement": "lymphodepletion profile compared to standard 2 day Cy with 4 day Flu", "setting": "mice, dexamethasone 12 or 17.5 mg/kg HED 12-72 hours before blood draw, combination with 12 mg/kg HED on day −2", "value": "comparable lymphodepletion profile"}, {"measurement": "absolute RBCs", "value": 10, "unit": "relative counts"}, {"measurement": "absolute neutrophils", "value": 605, "unit": "relative counts"}, {"measurement": "absolute platelet", "value": 373, "unit": "relative counts"}, {"measurement": "absolute RBCs", "setting": "po, 12 mg/kg", "value": 10, "unit": "relative counts"}, {"measurement": "absolute neutrophils", "setting": "po, 12 mg/kg", "value": 321, "unit": "relative counts"}, {"measurement": "absolute platelet", "setting": "po, 12 mg/kg", "value": 348, "unit": "relative counts"}]}]}
